Laboratory results reported in patent publication US20230241155A1, “METHODS AND MEANS FOR MODIFYING HEMODYNAMICS IN INFECTIONS” (Biotempt B.V., priority 2020, published 2023).

Assay: Solubility / aggregation screen of AQGV peptide salts
From the text: FIG. 7: Overview of solubility experiments with results in Table 1.

- aggregation in aqueous solution (in relation to peptide-acetate aggregation): (strongly) reduced aggregation
- solubility (aggregation point) (solubility in 0.9% NaCl, compared to AQGV-Ac): Higher solubility
Substance: AQGV-tartrate
